The test addresses 5-hydroxytryptamine receptor 6 (Homo sapiens, UniProt P50406). The test is described as follows: Antagonist activity at cloned human 5-HT6 receptor expressed in human HeLa cells assessed as inhibition of 5HT-induced cyclic AMP formation. Type of test: functional, cell-based. In short, it runs like this:
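Cyclase functional assay at 5-HT6 receptor, antagonism measured against the natural agonist 5-HT; compounds tested as HCl salts; efficacy expressed as Imax, percentage of maximal antagonism relative to that obtained with SB-271047.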

By UniProt entry, the sequences of proteins in these tests, tags left out.
UniProt P50406, whole entry: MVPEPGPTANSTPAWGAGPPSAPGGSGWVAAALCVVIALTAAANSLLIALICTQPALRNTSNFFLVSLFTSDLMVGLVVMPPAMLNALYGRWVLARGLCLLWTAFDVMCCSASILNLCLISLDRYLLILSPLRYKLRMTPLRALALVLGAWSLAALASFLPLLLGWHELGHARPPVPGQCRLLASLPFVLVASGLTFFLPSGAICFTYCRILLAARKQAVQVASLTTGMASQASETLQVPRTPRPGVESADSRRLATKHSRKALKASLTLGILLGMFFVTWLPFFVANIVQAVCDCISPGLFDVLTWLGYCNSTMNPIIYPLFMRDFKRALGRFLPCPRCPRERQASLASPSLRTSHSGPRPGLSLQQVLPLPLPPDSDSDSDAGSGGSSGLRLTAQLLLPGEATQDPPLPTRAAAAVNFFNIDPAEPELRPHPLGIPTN

Each structure is given as a SMILES string.

The results in this text go back to ChEMBL document CHEMBL1641413, “Identification of 3-sulfonylindazole derivatives as potent and selective 5-HT(6) antagonists” (Bioorg Med Chem, 2011).

By IC50 is commonly meant the concentration that inhibits the measured activity by half. Take `CC(C)[C@H](N)CNc1ccc2[nH]nc(S(=O)(=O)c3cccc4ccccc34)c2c1`: the IC50 stood at 103 nM.
